In ChEMBL document CHEMBL5346864, “Identification of L. infantum trypanothione synthetase inhibitors with leishmanicidal activity from a (non-biased) in-house chemical library” (Eur J Med Chem, 2022):

Legend:
Leishmania infantum [1] = assay: (§1) Inhibition of N-terminal His6-tagged recombinant Leishmania infantum promastigotes (MCAN/ES/89/IPZ229/1/89) TryS expressed in Escherichia coli BL21(DE3) Rossetta assessed as apparent Vmax of GspdSH using GspdSH, GSH and ATP as substrate at 8.3 uM measured after 30 mins by BIOMOL Green reagent based assay
Leishmania infantum [2] = assay: as §1, with “4” for “8.3”
Leishmania infantum [3] = assay: as §1, with “5.8” for “8.3”
Leishmania infantum [4] = assay: as §1, with “6.9” for “8.3”
Leishmania infantum [5] = assay: as §1, with “4.8” for “8.3”

Vmax(app) (Leishmania infantum [1]): 0.004 µM/s
Vmax(app) (Leishmania infantum [2]): 0.012 µM/s
Vmax(app) (Leishmania infantum [3]): 0.006 µM/s
Vmax(app) (Leishmania infantum [4]): 0.004 µM/s
Vmax(app) (Leishmania infantum [5]): 0.009 µM/s
SMILES: CCCCCCCCCCCCCCOc1ccc(C[N+](C)(C)C2CCCC2)cc1OC
